Values quoted from earlier work as cited in paper PMC4408839.

By UniProt entry, the sequences of proteins in these tests, tags left out. Residues count along the entry.
UniProt O88917, 25-1515: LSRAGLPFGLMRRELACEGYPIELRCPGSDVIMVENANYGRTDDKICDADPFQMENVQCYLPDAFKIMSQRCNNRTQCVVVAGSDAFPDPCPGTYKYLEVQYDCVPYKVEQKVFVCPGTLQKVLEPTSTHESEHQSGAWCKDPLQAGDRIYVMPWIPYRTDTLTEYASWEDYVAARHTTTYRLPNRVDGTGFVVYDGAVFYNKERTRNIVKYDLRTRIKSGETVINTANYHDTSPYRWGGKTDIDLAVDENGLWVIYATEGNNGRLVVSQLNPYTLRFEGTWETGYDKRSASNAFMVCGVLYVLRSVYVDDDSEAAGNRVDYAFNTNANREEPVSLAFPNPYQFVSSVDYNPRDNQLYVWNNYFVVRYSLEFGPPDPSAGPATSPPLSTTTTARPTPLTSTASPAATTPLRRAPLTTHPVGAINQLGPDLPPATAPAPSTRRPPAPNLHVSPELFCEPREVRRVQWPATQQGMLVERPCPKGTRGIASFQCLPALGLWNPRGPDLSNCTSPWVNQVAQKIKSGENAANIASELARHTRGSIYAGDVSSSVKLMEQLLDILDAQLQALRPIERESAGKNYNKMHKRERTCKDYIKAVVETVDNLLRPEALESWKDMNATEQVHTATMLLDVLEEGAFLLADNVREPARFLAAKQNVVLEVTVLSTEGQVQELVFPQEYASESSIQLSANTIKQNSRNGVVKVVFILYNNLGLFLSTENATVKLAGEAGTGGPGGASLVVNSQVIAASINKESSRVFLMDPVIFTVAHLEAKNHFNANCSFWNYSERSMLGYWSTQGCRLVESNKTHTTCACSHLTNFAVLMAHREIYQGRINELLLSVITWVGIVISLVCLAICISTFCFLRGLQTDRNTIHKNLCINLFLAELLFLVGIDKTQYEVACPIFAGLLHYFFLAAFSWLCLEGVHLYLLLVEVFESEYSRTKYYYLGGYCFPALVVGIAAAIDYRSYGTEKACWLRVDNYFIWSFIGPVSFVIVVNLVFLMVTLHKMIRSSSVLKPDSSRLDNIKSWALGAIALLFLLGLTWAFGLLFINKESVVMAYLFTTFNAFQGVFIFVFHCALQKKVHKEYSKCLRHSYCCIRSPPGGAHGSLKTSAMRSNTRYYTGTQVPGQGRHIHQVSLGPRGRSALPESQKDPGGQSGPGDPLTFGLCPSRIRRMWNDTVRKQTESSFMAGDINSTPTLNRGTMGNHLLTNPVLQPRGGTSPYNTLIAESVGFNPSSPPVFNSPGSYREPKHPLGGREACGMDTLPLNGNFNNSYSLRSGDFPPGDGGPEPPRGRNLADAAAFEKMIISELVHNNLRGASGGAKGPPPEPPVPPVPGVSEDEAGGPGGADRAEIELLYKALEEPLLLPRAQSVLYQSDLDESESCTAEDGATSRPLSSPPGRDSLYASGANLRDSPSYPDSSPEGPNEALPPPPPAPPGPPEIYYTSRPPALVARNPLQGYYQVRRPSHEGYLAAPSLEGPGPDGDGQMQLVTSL

Molecular target: latrophilin-1 (Rattus norvegicus) (UniProt O88917)

teneurin-2 (from UniProt Q9NT68)
Kd: < 2 nM
